Results: patent US20230139883A1, “Peptides for Inducing Differentiation” (Shimadzu Corporation, priority 2020, published 2023)

Assays:
[1] = tested on: iPS-hFB; assay: Differentiation induction of iPS cells into cardiomyocytes: observation of beating cell clusters; settings: for day on which beating cell clusters were observed: Example 4: peptide + 5 ng/mL bFGF + Activin A on Day 1 (protocols 7, 8, 9); for state of beating compared among the groups: Example 4: peptide + bFGF + Activin A (protocols 7, 8, 9) and bFGF + Activin A (protocol 10)
[2] = tested on: iPS-hFB; assay: Differentiation induction of iPS cells into cardiomyocytes: Actinin immunostaining for sarcomere structures; format: cell-based; settings: Day 23 cell clusters (FIGS. 6 and 7)
Procedure: Furthermore, on Day 23 Actinin immunostaining was used to observe whether cardiomyocyte-specific sarcomere structures were recognized. Specifically, Day 23 cell clusters were reduced to single cells by collagenase and Accumax treatments, and then the cells were seeded at 10000 cells/well to 24-well plates coated with fibronectin. The next day, the cells were fixed with 4% paraformaldehyde solution and permeabilized with 0.1% Triton-X/PBS. The cells were then subjected to blocking treatment with PBS containing 5% Donkey Serum, and 1% BSA. After washing with 0.01% Triton-X/PBS, mouse anti-Actinin antibody (Sigma) was added and the reaction was carried out at room temperature for 60 minutes. After that, the cells were washed with 0.01% Triton-X/PBS, Alexa594-modified Anti-mouse antibody (abcam) was added, and the reaction was carried out at room temperature for 60 minutes.

[3] = tested on: iPS-hFB; assay: Differentiation induction of iPS cells into neurons: RT-qPCR of SYN1, MAP2 and Nr2f1; format: cell-based; settings: for Nr2f1 gene expression level: 0.25 nM peptide on Day 3, Day 35; for MAP2 gene expression level / SYN1 gene expression level: 0.25 nM peptide, Day 35
Procedure: An attempt to apply 100nX to a differentiation induction system from iPS cells to neurons was made. […] A group in which G-MEM supplemented with 20% KSR (Thermo), 1xNEAA (Thermo), 0.1 mM 2-mercaptoethanol (Wako Pure Chemicals), 1 mM sodium pyruvate (Thermo), 20 μM Y27632 (Wako Pure Chemicals), 3 μM IWR-1-endo (Wako Pure Chemicals), 5 μM SB431542 (Wako Pure Chemicals) was added at 100 μL/well was prepared as a control group (FIG. 14, protocol 2). On Day 6, the entire medium was replaced with the medium of each condition containing no Y27632 (Wako Pure Chemicals). Likewise, the medium was exchanged at Day 10 and Day 14. The medium was removed on Day 18 and the cells added with DMEM/F12 (GlutaMax) (Thermo) containing 1% N-2 Supplement and 1% Chemically Defined Lipid Concentrate were transferred to EZSPHERE (AGC Technoglass) at 2 mL/well. On Day 21, 24, and 27, the medium was replaced with DMEM/F12 (GlutaMax) (Thermo) containing 1% N-2 Supplement. Further, On Day 30, and 33, the medium was replaced with DMEM/F12 (GlutaMax) (Thermo) containing 1% N-2 Supplement and 1% Chemically Defined Lipid Concentrate.

[4] = tested on: iPS-hFB; assay: Differentiation induction of iPS cells into cardiomyocytes: RT-qPCR of cardiomyocyte markers cTNT and Actinin
[5] = compared to control protocol 2 (no bFGF)
[6] = compared to conventional protocol 1 (bFGF)
[7] = protocol 2: 0.05 or 0.5 μM peptide + Activin A on Day 1, no bFGF, Day 16 to Day 22
[8] = Example 2, protocol 2, Day 23, compared to protocols 1, 3 and 4
[9] = Example 4: 0.05 to 5 μM peptide in combination with bFGF, Day 23
[10] = Example 12: 0.0005, 0.005, 0.05 or 0.5 μM peptide, Day 23
[11] = Example 12: 0.0005 to 0.5 μM peptide + BMP4 + Activin A on Day 1, Day 23, compared to conventional protocol 1

CAAELAALEAELAALEGVPGDNNGTRGKLYHLKNKLHRLKNAC [100n9]
day on which beating cell clusters were observed [1]: on or after Day 10 to Day 11
state of beating compared among the groups [1]: no difference in the state of beating among the groups

HBD-100nX: heparan sulfate binding peptide WQPPRARIG (SEQ ID NO: 49) fused to 100nX (X is 9: SEQ ID NO: 9) (WQPPRARIGCAAELAALEAELAALEGVPGDNNGTRGKLYHLKNKLHRLKNAC)
sarcomere structure by Actinin immunostaining [2]: prominent sarcomere structure and the formation of highly functional cardiomyocytes
Nr2f1 gene expression level [3, 5]: significantly increased
Nr2f1 gene expression level [3, 6]: significantly increased
MAP2 gene expression level [3, 5]: significantly increased
SYN1 gene expression level [3, 5]: significantly increased
MAP2 gene expression level [3, 6]: similar
SYN1 gene expression level [3, 6]: similar
promotion of / contribution to neural differentiation ([3]; overall, relative to bFGF): as effective as or better than conventional bFGF
day on which beating cell clusters were observed [1]: on or after Day 10 to Day 11
state of beating compared among the groups [1]: no difference in the state of beating among the groups
cell clusters in which beating was observed [1, 7]: no less than 80%
state of beating [1, 7]: beating was observed over the entire cell clusters
concentration dependence of gene expression (cTNT, ACTN2) ([4]; Example 2, 0.05 or 0.5 μM peptide, Day 23): peptide concentration-dependent increase in gene expression
ACTN2 expression level [4, 8]: significantly increased
cTNT expression level [4, 8]: significantly increased
ACTN2 expression level, dependence on peptide concentration [4, 9]: increased dependent on peptide concentration
cTNT expression level, dependence on peptide concentration [4, 9]: increased dependent on peptide concentration
gene expression levels (cTNT, ACTN2), comparison among the peptides ([4]; Example 4: peptide in combination with bFGF, Day 23): highest value
gene expression levels (cTNT, ACTN2) ([4]; Example 4: peptide in combination with bFGF, Day 23, compared to conventional protocol 1): significantly increased
concentration dependence of gene expression (cTNT, ACTN2) [4, 10]: peptide concentration-dependent manner
ACTN2 expression level [4, 11]: significantly increased
cTNT expression level [4, 11]: significantly increased

HBD-F3-100n9: heparan sulfate binding peptide WQPPRARIG (SEQ ID NO: 49) fused to F3-100n9 (SEQ ID NO: 27) (WQPPRARIGCAAELAALEAELAALEGVRPETMSQVGKLLVLKHRLGQLKRAC)
concentration dependence of gene expression (cTNT, ACTN2) [4, 10]: different response tendency
ACTN2 expression level [4, 11]: significantly increased
cTNT expression level [4, 11]: significantly increased

B1: 100nX-Dimer: a dimerized peptide of 100nX (SEQ ID NO: 9) (peptide)
chain 1: CAAELAALEAELAALEGVPGDNNGTRGKLYHLKNKLHRLKNAC
chain 2: B1 chain 1
modifications: dimerized
day on which beating cell clusters were observed [1]: on or after Day 10 to Day 11
state of beating compared among the groups [1]: no difference in the state of beating among the groups
